Legend:
DBA mice = assay: Conditioned place preference test (CPP); type: in vivo, mouse; details: for locomotor activity: in place preference apparatus
Procedure: The CPP apparatus (Med Associates) consisted of two visually distinctive conditioning compartments connected by a smaller center compartment. The CPP procedure consisted of three phases: preconditioning (Day 1), conditioning (Days 2-9), and post-conditioning (Day 10). On Day 1, mice were placed into the center compartment and allowed free access to both conditioning compartments for 30 minutes. To test whether ibogaine is aversive or rewarding, on Day 2, mice received i.p. injections of either saline or 40 mg/kg ibogaine. Mice were given access to one conditioning chamber for 5 minutes immediately after injection or 3 h after injection. […] This daily alternation occurred until subjects received 4 pairings each of ibogaine and saline with their respective conditioning chambers. Control subjects received saline in both conditioning chambers. To test whether ibogaine alters ethanol-induced CPP, on Day 2, ibogaine (40 mg/kg, i.p.), or saline, was injected 3 hours prior to injection of ethanol (2 g/kg, 20% solution). Ethanol treatment was followed by placement within one conditioning chamber, alternated with saline treatment and placement into the other conditioning chamber, as described above. On Day 10, animals were tested for CPP by allowing free access to both conditioning compartments for 30 minutes. Photocell counts provided a measure of locomotor activity as well as time spent in each compartment

neurons = details: systemic i.p. ibogaine, 25 μm brain slices; data not shown
[1] = in vivo; cited from earlier work
Purkinje cell = details: 40 mg/kg ibogaine; cited from earlier work

## 12-methoxyibogamine [ibogaine]
DBA mice; 40 mg/kg i.p., injected immediately or 3 hours before conditioning
  ibogaine-conditioned place preference or aversion: No significant ibogaine-conditioned preference or aversion
DBA mice; ibogaine alone
  locomotor activity: no change
DBA mice; ibogaine together with ethanol
  locomotor activity: no change
neurons
  neuronal cell death: no evidence of neuronal cell death
[1]
  half-life: 1 to 2 h
Purkinje cell
  Purkinje cell death: not to produce Purkinje cell death
